For test [1], the target named is T1, P2X7 receptor (CaSki cells) (Homo sapiens, UniProt Q99572).
T1 sequence (Q99572 1-595): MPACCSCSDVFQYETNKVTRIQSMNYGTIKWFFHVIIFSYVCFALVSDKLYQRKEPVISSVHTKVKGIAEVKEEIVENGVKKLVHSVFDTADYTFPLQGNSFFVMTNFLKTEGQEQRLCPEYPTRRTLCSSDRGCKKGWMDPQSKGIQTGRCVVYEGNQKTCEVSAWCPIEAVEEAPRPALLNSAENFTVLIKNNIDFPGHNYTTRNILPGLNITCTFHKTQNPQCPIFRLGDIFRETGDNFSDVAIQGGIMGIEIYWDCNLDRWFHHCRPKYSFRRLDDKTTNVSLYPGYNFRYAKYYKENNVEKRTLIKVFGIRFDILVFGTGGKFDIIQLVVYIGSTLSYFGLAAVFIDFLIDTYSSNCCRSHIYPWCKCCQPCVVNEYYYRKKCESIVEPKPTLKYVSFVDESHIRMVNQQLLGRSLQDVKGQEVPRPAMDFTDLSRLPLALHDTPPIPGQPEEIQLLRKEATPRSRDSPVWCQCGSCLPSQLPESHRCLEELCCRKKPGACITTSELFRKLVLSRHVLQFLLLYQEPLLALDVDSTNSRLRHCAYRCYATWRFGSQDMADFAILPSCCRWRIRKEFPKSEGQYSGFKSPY
As to the kind of experiment: Ethidium bromide influx (pore formation) in CaSki cells attached on filters. Type of test: cell-based. More on the design: human cervical epithelial cells expressing endogenous P2X7 receptor protein; endogenous in cells; host or cells: CaSki (ATCC). The settings on record: pretreatment. The method, then: The method of fluorescence experiments of attached cells was described. Gorodeski et al., “A novel fluorescence chamber for the determination of volume changes in human CaSki cell cultures attached on filters” Cell Biochem Biophys 29:307-332 (1998). Changes in cytosolic calcium (Cai) were determined in fura-2 loaded cells. For experiments with the nuclear stain Ethidium Bromide (MW 394 Da), the agent was added to the perfusing solutions from a concentrated (100×) stock at a final concentration of 5 μM. Upon influx into cells, the dye binds to nuclear chromatin and elicits specific fluorescence. Changes in fluorescence were measured on-line at the 518/605 um wavelengths (excitation/emission). […]
For measurements of cytosolic calcium, cells on filters were incubated with 7 μM fura-2/acetoxymethyl ester plus 0.25% pluronic F12. Measurements of fluorescence were conducted in a custom-designed fluorescence chamber. […] Cells were illuminated over the apical surface, and the intensity of the emitted light from the apical surface was measured. Agents were added to the luminal and subluminal solutions, and changes in cytosolic calcium were determined by switching the excitation filters to record the maximal (340/510 nm excitation/emission) and minimal (380/510 nm) fluorescence. […] Upon influx into cells, the dye binds to nuclear chromatin and elicits specific fluorescence. […]

In test [2] the test system is P2X7 receptor (CaSki cells). As to the kind of experiment: Western immunoblot of cellular expression of P2X7 receptor forms in CaSki cells. Type of test: cell-based, human. On the procedure:
Gels were transferred onto Immobilon membrane (Millipore) at 200 V for 1.5 h, membranes were blocked in 5% milk, and receptor polypeptides were visualized using 1.5 μg/ml rabbit anti-P2X antibody at 4° C. overnight. Membranes were washed three times in PBS and fluorescent stained for 1 minute using an enhanced chemiluminescence kit of anti-rabbit peroxidase-conjugated secondary antibody (Santa Cruz Biotechnology, Santa Cruz, Calif.). For protein deglycosylation, 20 μg total lysate proteins containing 1% SDS was denatured by heating for 5 minutes at 100° C. The mixture was incubated overnight at room temperature after addition of U fresh N-glycosidase F (GlycoTech, Rockville, Md.) in 20 mM Tris-HCl, pH 7.5, containing 1 mM EDTA and 50 mM NaCl. Samples were analyzed by Western blot as described above.
In general terms: A western blot detects proteins with antibodies after separation by electrophoresis.

In test [3] the target is T1, P2X7 receptor (CaSki cells). As to the kind of experiment: Cytosolic calcium (fura-2) in CaSki cells attached on filters. The settings on record: pretreatment, KN-62 100 nM 15 min before BzATP. Type of test: cell-based. On the set-up: human cervical epithelial cells expressing endogenous P2X7 receptor protein; endogenous in cells; host or cells: CaSki (ATCC).

Regarding `CNC[C@H](O)c1ccc(O)c(O)c1` [epinephrine], in test [1], the “modulation of BzATP-induced influx of ethidium bromide” value was “attenuated”. The “levels of the P2X7 receptor forms” value was “decreased the 65-kDa form” in test [2] (Day-2 CaSki cells); “decreased the 85-kDa and 65-kDa forms and increased the 18-kDa form” in test [2] (Day-6 CaSki cells). Besides, the “modulation of BzATP-induced increase in cytosolic calcium” value in test [3] is listed as “attenuated”.

(Values after patent publication US7767789B2, “Truncated proteins as cancer markers” (University Hopitals of Cleveland, priority 2005, dated 2010).)
